Assay results reported in patent publication US9428492B2, “Secondary alcohol substituted triazoles as PDE10 inhibitors” (Merck Sharp & Dohme Corp., priority 2012, dated 2016).

Chains of the proteins cited; added tags and fusions are not shown. Residues count along the entry.
UniProt Q9Y233, 267-1055: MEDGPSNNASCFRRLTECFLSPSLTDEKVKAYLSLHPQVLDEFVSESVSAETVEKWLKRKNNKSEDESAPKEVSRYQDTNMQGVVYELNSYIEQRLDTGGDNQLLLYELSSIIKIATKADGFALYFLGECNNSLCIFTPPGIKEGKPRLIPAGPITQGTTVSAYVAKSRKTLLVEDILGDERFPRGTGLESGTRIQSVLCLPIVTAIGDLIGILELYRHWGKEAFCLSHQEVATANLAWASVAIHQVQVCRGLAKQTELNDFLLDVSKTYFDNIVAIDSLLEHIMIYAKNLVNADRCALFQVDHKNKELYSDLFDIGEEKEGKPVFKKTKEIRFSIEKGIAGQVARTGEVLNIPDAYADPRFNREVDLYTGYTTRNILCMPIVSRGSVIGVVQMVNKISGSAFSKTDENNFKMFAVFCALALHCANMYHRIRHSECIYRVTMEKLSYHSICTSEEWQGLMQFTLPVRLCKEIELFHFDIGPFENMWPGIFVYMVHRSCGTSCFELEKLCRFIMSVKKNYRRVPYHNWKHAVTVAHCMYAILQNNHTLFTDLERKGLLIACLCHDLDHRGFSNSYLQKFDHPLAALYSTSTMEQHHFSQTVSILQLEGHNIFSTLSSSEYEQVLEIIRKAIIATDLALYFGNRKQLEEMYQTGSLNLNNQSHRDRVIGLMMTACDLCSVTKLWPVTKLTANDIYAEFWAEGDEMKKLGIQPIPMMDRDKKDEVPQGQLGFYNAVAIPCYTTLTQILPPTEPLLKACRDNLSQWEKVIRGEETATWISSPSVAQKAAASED

Target: human PDE10A2 (Homo sapiens (Human), UniProt Q9Y233)
Assay: PDE10 fluorescence polarization (IMAP FP) inhibition assay
Assay type: biochemical
Conditions: read-out: PDE10a Ki
Description: The activity of the compounds in accordance with the present invention as PDE10 inhibitors may be readily determined without undue experimentation using a fluorescence polarization (FP) methodology that is well known in the art (Huang, W., et al., J. Biomol Screen, 2002, 7: 215).
In a typical experiment the PDE10 inhibitory activity of the compounds of the present invention was determined in accordance with the following experimental method. PDE10A2 was amplified from human fetal brain cDNA (Clontech, Mountain View, Calif.) using a forward primer corresponding to nucleotides 56-77 of human PDE10A2 (Accession No. AF127480, Genbank Identifier 4894716), containing a Kozak consensus sequence, and a reverse primer corresponding to nucleotides 2406-2413 of human PDE10A2 (Accession No. AF127480, Genbank Identifier 4894716). Amplification with Easy-A polymerase (Stratagene, La Jolla, Calif.) was 95° C. for 2 minutes followed by thirty three cycles of 95° C. for 40 seconds, 55° C. for 30 seconds, and 72° C. for 2 minutes 48 seconds. Final extension was 72° C. for 7 minutes. […] The fluorescence polarization assay for cyclic nucleotide phosphodiesterases was performed using an IMAP® FP kit supplied by Molecular Devices, Sunnyvale, Calif. […] 0% of inhibition is determined by using DMSO (1% final concentrations). […]

CCC(O)c1nc(C)nn1-c1cc(C2C[C@H]2c2nc3ccccc3n2C)nc(C)n1 (stereo partly drawn) [Example 19, 1-(3-methyl-1-(2-methyl-6-((1R,2R)-2-(1-methyl-1H-benzo[d]imidazol-2-yl)cyclopropyl)pyrimidin-4-yl)-1H-1,2,4-triazol-5-yl)propan-1-ol]
Ki: 1.3 nM
